Experimental data: patent US5028411A, “Pharmaceutical compositions” (priority 1984, dated 1991)

Assay: Ksol, ability to solubilise iron(III) hydroxide
Format: physicochemical
Details: must be >0 to solubilise iron(III) hydroxide
Description: In order to solubilise iron(III) hydroxide, log Ksol must be greater than 0.

## Cc1occc(=O)c1O [maltol, 3-hydroxy-2-methyl-4-pyrone]
  log Ksol: 8.0
